Reference: patent US7670613B2, “Androgen modulators” (Pfizer Inc., priority 2004, dated 2010)

Amino acid sequences for entries named in this document (tags omitted).
UniProt P10275, whole entry Q868H: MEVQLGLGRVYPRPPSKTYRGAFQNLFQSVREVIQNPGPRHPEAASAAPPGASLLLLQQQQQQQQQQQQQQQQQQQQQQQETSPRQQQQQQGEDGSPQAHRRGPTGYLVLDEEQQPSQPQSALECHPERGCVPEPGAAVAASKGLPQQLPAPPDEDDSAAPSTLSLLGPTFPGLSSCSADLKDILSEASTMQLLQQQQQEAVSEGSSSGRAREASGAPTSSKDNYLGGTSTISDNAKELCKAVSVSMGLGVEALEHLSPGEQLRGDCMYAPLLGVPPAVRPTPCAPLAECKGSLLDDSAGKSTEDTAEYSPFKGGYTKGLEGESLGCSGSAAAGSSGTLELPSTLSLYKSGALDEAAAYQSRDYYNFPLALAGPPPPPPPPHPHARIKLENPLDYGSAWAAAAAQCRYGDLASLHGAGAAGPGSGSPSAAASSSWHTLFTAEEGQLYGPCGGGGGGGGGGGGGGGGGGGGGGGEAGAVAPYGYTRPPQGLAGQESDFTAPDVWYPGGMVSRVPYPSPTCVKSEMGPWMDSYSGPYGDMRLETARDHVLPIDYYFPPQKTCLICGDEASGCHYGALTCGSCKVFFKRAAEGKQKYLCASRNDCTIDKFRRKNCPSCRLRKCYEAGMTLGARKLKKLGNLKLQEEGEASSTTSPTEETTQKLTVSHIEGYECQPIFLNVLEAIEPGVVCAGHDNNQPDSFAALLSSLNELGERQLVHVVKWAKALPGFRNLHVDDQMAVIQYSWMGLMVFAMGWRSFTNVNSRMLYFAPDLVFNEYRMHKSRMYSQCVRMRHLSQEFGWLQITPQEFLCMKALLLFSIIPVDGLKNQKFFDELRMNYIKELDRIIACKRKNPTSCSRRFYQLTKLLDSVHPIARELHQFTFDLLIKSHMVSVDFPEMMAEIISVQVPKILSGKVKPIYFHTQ

Experiments:
[1] = molecular target: T1, hAR (Homo sapiens, UniProt P10275); test: Competitive binding analysis on baculovirus/Sf9 generated hAR extracts with 3H-DHT tracer; details: hAR extract, 1 nM 3H-DHT, one hour at 4° C.; mean of multiple tests; read-out: AR Binding IC50
T1 construct: made in house; host or cells: baculovirus/Sf9 insect cells
Protocol: The description below describes how the assay was carried out.
Competitive binding analysis was performed on baculovirus/Sf9 generated hAR extracts in the presence or absence of different concentrations of test agent and a fixed concentration of ^3H-dihydrotestosterone (^3H-DHT) as tracer. This binding assay method is a modification of a protocol previously described (Liao S., et. al. J. Steroid Biochem. 20:11-17 1984). Briefly, progressively decreasing concentrations of compounds are incubated in the presence of hAR extract (Chang et al. P.N.A.S. Vol. 89, pp. […], 1992), hydroxylapatite, and 1 nM ^3H-DHT for one hour at 4° C. Subsequently, the binding reactions are washed three times to completely remove excess unbound ^3H-DHT. hAR bound ^3H-DHT levels are determined in the presence of compounds (i.e. competitive binding) and compared to levels bound when no competitor is present (i.e. maximum binding). Compound binding affinity to the hAR is expressed as the concentration of compound at which one half of the maximum binding is inhibited.

[2] = molecular target: T2, androgen receptor (Homo sapiens, UniProt P10275, Q868H); test: AR antagonist cell assay (MDA-MB453-MMTV clone 54-19, luciferase reporter); assay type: cell-based; details: MDA-MB453-MMTV clone 54-19 cells, 100 pM DHT, 17 hr; mean of multiple tests
T2 construct: a human breast tumor cell line expressing androgen receptor; endogenous in cells; host or cells: MDA-MB453-MMTV clone 54-19 (only the MMTV-luciferase reporter was transfected)
Protocol: The compounds ability to antagonize the effects of androgen on the androgen receptor were determined in a whole cell assay as described immediately below.
Experimental Procedure for AR Antagonist Cell Assay
Cell line: MDA-MB453-MMTV clone 54-19. This cell line is a stable transfected cell line with MDA-MB453 cell background (a human breast tumor cell line expressing androgen receptor). A MMTV minimal promoter containing ARE was first cloned in front of a firefly luciferase reporter gene. Then the cascade was cloned into transfection vector pUV120puro. Electroporation method was used for transfecting MDA-MB-453 cell. Puromycin resistant stable cell line was selected.
Cell Culture Media and Reagents:
Culture medium: DMEM (high glucose, Gibco cat #: 11960-044), 10% FBS, and 1% L-glutamine
Plating medium: DMEM (phenol red free), 10% charcoal treated HyClone serum, 1% L-glutamine
Assay medium: DMEM (phenol red free), 1% charcoal treated HyClone serum, 1% L-glutamine, and 1% penicillin/streptomycin
3× luciferase buffer: 2% beta-mercaptoethanol, 0.6% ATP, 0.0135% luciferine in cell lysis buffer
• 1. […] Add 50 ul/well 3× luciferase buffer, incubate at room temperature for 5 minutes, then count on Luminometer The fold induction over background by 100 pM DHT in the absence of testing compounds is standardized as 100% and experimental result is expressed as percentage of inhibition by testing compounds. […]

Q: For “1S,5S)-2-Chloro-4-(5-hydroxy-5-methyl-bicyclo[2.2.1]hept-2-yloxy)-benzonitrile [Example 19]”, which IC50 [1] is on record?
A: 9 nM

Q: What about the IC50 [2] of the same substance?
A: 14 nM
